This test has as its system MA-10 cells. The test is described as follows: Basal testosterone secretion by MA-10 Leydig cells. It counts as cell-based, murine. The following applies: cAMP 100 μM or LH 10 ng/mL (8.5 IU/mL); 48-h exposure.

For the substance “LH: gonadotropin luteinizing hormone used to stimulate Leydig cells to produce T”, the “increase in T secretion compared to vehicle-treated cells” value was 215 fold.

These data come from publication PMC5598417 (Toxicology Reports, 2014).
